Laboratory results: US12653798B2, “Fixed combination medicine for the control and management of neuropathic pain” (LABORATORIOS SILANES S.A. DE C.V., priority 2020, dated 2026)

Assay: Dissolution profile tests
Type: physicochemical

Cc1ncc(CO)c(CO)c1O.Cl [pyridoxine hydrochloride]
% dissolved (t 5 min): 91.75%
% dissolved (t 15 min): 97.08%
% dissolved (t 30 min): 97.56%
% dissolved (t 45 min): 97.84%
